Values quoted from earlier work as cited in PMC4109288 (Lancet, 2012).

System: mutant BRAF
Conditions: kinase panel screening, cell lines, and xenografts; cited from earlier work

Structure (SMILES): CC(C)(C)c1nc(-c2cccc(NS(=O)(=O)c3c(F)cccc3F)c2F)c(-c2ccnc(N)n2)s1 [dabrafenib, Dabrafenib]
- Selectivity for mutant BRAF: highly selective for mutant BRAF
